Article PMC5823874

Target: iPLA2β (UniProt O60733)
Test: fluorescent liposome activity assay

**Q.** With calmodulin (from UniProt P0DP23) as the substance, how does the Ki read?
**A.** 23 nM
